Experiments:
Conditions in all cases: both partners purified
[1] = molecular target: T1, Kap95 (UniProt Q06142 1-861); experiment: SPR; FSFG6 immobilised via C-terminal Cys (GLC chip), low density 415 RU; association 15 s; 100 ul/min, TBT-PVP, 25 C; fit: one-to-one plus mass transport limitation model
T1 construct: Kap95, a karyopherin transport factor; also called Kap95 without the GST domain
T1 sequence (looked up): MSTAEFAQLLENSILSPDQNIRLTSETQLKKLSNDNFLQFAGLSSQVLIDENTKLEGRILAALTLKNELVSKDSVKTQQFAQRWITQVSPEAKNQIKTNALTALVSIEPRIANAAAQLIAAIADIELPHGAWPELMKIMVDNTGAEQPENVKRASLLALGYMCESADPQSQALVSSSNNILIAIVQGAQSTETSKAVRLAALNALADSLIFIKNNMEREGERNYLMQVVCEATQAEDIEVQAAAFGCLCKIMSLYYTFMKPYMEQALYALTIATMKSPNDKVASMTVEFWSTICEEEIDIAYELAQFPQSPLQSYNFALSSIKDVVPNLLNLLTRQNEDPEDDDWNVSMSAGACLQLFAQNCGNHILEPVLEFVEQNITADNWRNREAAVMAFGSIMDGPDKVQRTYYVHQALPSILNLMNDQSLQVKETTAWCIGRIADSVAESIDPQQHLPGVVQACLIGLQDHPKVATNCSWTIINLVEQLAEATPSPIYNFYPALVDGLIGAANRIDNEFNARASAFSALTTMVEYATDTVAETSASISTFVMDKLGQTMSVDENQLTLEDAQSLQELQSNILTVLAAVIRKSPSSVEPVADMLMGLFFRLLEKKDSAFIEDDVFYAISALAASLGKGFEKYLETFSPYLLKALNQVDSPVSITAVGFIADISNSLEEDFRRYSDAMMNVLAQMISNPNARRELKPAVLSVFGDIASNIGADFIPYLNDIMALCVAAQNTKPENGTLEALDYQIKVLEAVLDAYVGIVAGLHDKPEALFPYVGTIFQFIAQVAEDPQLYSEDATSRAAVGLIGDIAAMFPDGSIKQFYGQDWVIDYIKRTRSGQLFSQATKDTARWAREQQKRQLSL

[2] = molecular target: T1, Kap95; experiment: SPR; FSFG6 immobilised via C-terminal Cys (GLC chip), medium density 550 RU; association 15 s; 100 ul/min, TBT-PVP, 25 C; fit: one-to-one model
[3] = molecular target: T1, Kap95; experiment: SPR; FSFG6 immobilised via C-terminal Cys (GLC chip), medium density 550 RU; association 60 s; 100 ul/min, TBT-PVP, 25 C; fit: one-to-one model
[4] = molecular target: T1, Kap95; experiment: SPR; FSFG6 immobilised via C-terminal Cys (GLC chip), high density 791 RU; association 30 s; 100 ul/min, TBT-PVP, 25 C; fit: one-to-one model
[5] = molecular target: T1, Kap95; experiment: SPR; FSFG6 immobilised via C-terminal Cys (GLC chip), low density 415 RU; association 30 s; 100 ul/min, TBT-PVP, 25 C; fit: one-to-one plus mass transport limitation model
[6] = molecular target: T1, Kap95; experiment: SPR; FSFG6 immobilised via C-terminal Cys (GLC chip), medium density 550 RU; association 30 s; 100 ul/min, TBT-PVP, 25 C; fit: one-to-one model
[7] = molecular target: T1, Kap95; experiment: SPR; FSFG6 immobilised via C-terminal Cys (GLC chip), high density 791 RU; association 15 s; 100 ul/min, TBT-PVP, 25 C; fit: one-to-one plus mass transport limitation model
[8] = molecular target: T1, Kap95; experiment: SPR; FSFG6 immobilised via C-terminal Cys (GLC chip), low density 415 RU; association 60 s; 100 ul/min, TBT-PVP, 25 C; Langmuir isotherm analysis
[9] = molecular target: T1, Kap95; experiment: SPR; FSFG6 immobilised via C-terminal Cys (GLC chip), low density 415 RU; association 60 s; 100 ul/min, TBT-PVP, 25 C; fit: one-to-one plus mass transport limitation model
[10] = molecular target: T1, Kap95; experiment: SPR; FSFG6 immobilised via C-terminal Cys (GLC chip), low density 415 RU; association 30 s; 100 ul/min, TBT-PVP, 25 C; Langmuir isotherm analysis
[11] = molecular target: T1, Kap95; experiment: SPR; FSFG6 immobilised via C-terminal Cys (GLC chip), high density 791 RU; association 120 s; 100 ul/min, TBT-PVP, 25 C; fit: one-to-one model
[12] = molecular target: T1, Kap95; experiment: SPR; FSFG6 immobilised via C-terminal Cys (GLC chip), low density 415 RU; association 120 s; 100 ul/min, TBT-PVP, 25 C; Langmuir isotherm analysis
[13] = molecular target: T1, Kap95; experiment: SPR; FSFG6 immobilised via C-terminal Cys (GLC chip), high density 791 RU; association 60 s; 100 ul/min, TBT-PVP, 25 C; fit: one-to-one model

B1: FSFG6-Cys-His6 (domain or fragment)
chain: not shown
modifications: conjugated to the sensor surface through the C-terminal cysteine (maleimide)
notes: Segment of Nsp1FG (S. cerevisiae Nsp1) with six repeats of the FxFG-type region, followed by an added Cys, LE and His6
Kd [1]: 6.7 nM
koff [1]: 0.00653 s⁻¹
kon [1]: 975000 M⁻¹ s⁻¹
Kd [2]: 1.46 nM
koff [2]: 0.00303 s⁻¹
kon [2]: 2.07e+06 M⁻¹ s⁻¹
Kd [3]: 3.15 nM
koff [3]: 0.00275 s⁻¹
kon [3]: 873000 M⁻¹ s⁻¹
Kd [4]: 1.99 nM
koff [4]: 0.00199 s⁻¹
kon [4]: 997000 M⁻¹ s⁻¹
Kd [5]: 1.05 nM
koff [5]: 0.00449 s⁻¹
kon [5]: 4.29e+06 M⁻¹ s⁻¹
Kd [6]: 3.27 nM
koff [6]: 0.00265 s⁻¹
kon [6]: 810000 M⁻¹ s⁻¹
Kd [7]: 9.36 nM
koff [7]: 0.00335 s⁻¹
kon [7]: 358000 M⁻¹ s⁻¹
Kd [8]: 43.3 nM
Kd [9]: 4.52 nM
koff [9]: 0.00409 s⁻¹
kon [9]: 905000 M⁻¹ s⁻¹
Kd [10]: 76.8 nM
Kd [11]: 3.2 nM
koff [11]: 0.00219 s⁻¹
kon [11]: 682000 M⁻¹ s⁻¹
Kd [12]: 41.9 nM
Kd [13]: 1.7 nM
koff [13]: 0.0022 s⁻¹
kon [13]: 1.29e+06 M⁻¹ s⁻¹
